Molecular target: T1, extracellular region of human CD123 subtype 1 with C-terminal His tag (hCD123-SP1-his) (human (Homo sapiens), UniProt P26951 19-305)
T1 construct: Recombinant, expressed in HEK293 cells
T1 sequence: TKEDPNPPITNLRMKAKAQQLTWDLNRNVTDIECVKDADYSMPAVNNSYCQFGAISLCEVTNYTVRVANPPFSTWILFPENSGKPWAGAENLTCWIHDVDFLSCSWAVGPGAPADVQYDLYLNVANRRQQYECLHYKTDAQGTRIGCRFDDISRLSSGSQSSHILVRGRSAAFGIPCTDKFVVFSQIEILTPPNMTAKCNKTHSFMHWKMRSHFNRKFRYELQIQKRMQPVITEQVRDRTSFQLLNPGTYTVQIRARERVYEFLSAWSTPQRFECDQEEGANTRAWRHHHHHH
Assay: SPR, Biacore X100; antibody captured by anti-human IgG (Fc) on CM5, hCD123-SP1-his as analyte, 1:1 model, 25 C
Method: The affinity of anti-CD123 antibodies was determined by surface plasmon resonance using Biacore X100. Related reagents and consumables such as Amino Conjugation Kit (BR-1000-50), Human Antibody Capture Kit (BR-1008-39), CM5 Chip (BR100012) and 10×HBS-EP (BR100669) buffer with pH 7.4 were all purchased from GE healthcare. According to the instructions in the kits, 1-Ethyl-3-(3-dimethylaminopropyl) carbodiimide hydrochloride (EDC) and N-Hydroxysuccinimide (NHS) was used to activate the surface of the carboxylated CM5 chip, and the anti-human IgG (Fc) antibody (capture antibody) was diluted to 25 μg/mL with 10 mM, pH5.0 sodium acetate, followed by an injection with a flow rate at 10 μL/min to achieve a coupling volume of approximately 10,000 response units (RU). Following the injection of the capture antibody, 1 M ethanolamine was injected to block unreacted groups. […] The chip surface was regenerated by injecting 3M MgCl₂ solution at 10 μL/min for 30 s. Association rates (Kₒₙ) and dissociation rates (Koff) were calculated from association and dissociation sensorgrams fitted by a 1:1 binding model using Biacore X100 evaluation software version 2.0.1. The dissociation equilibrium constant (KD) was calculated as the ratio Koff/Kₒₙ.

Kd: 0.599 nM
koff: 7.93e-05 s⁻¹
kon: 132000 M⁻¹ s⁻¹
B1: anti-CD123 antibody CSL362 (antibody, human IgG1, kappa, V domains shown)
VH: EVQLVQSGAEVKKPGESLKISCKGSGYSFTDYYMKWARQMPGKGLEWMGDIIPSNGATFYNQKFKGQVTISADKSISTTYLQWSSLKASDTAMYYCARSHLLRASWFAYWGQGTMVTVSS
VL: DIVMTQSPDSLAVSLGERATINCESSQSLLNSGNQKNYLTWYQQKPGQPPKPLIYWASTRESGVPDRFSGSGSGTDFTLTISSLQAEDVAVYYCQNDYSYPYTFGQGTKLEIKR

Reference: patent US20230071422A1 (BEIJING WISDOMAB BIOTECHNOLOGY, published 2023)
